Laboratory results reported in patent publication US20090304869A1, “Peptides Having an Ace Inhibiting Effect” (priority 2005, published 2009).
pIC50: −log10 of the molar value.

Protein sequences, listed by entry. Tags and fused reporters are not part of them. Residues count along the entry.
UniProt P12821, 30-1306, species assumed: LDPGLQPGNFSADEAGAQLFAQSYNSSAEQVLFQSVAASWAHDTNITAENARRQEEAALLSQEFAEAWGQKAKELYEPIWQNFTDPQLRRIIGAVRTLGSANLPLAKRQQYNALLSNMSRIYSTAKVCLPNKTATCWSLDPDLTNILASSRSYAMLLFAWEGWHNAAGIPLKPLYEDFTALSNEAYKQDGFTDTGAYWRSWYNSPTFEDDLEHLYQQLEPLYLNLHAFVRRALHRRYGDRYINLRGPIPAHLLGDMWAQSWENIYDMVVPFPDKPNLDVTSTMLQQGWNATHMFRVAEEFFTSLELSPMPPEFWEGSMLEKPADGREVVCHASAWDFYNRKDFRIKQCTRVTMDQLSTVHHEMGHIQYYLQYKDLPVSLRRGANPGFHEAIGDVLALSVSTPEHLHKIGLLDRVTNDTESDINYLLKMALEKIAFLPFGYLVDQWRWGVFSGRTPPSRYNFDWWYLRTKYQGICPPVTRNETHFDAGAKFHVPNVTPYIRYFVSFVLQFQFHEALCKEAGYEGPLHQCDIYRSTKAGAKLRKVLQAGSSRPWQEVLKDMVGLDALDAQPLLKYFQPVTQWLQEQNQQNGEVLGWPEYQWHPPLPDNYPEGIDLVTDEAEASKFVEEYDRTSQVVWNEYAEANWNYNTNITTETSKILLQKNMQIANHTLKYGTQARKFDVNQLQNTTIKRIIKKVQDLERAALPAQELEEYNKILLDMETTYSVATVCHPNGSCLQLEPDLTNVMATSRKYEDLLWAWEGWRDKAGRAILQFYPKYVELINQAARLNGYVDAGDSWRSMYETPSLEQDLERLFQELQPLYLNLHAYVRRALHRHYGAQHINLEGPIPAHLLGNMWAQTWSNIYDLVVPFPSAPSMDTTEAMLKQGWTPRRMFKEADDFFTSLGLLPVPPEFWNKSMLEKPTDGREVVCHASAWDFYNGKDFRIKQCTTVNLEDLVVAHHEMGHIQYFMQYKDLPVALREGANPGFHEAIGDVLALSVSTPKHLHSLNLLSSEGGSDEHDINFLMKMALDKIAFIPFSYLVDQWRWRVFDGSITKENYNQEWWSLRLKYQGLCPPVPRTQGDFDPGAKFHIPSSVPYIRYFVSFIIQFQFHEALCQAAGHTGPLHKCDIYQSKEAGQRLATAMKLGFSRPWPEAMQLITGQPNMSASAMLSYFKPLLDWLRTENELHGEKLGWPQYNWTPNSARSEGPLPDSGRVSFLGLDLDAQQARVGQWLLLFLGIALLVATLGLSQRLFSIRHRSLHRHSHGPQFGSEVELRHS

Biological target: Angiotensin Converting Enzyme (ACE) (Homo sapiens, UniProt P12821)
Test: At-line ACE assay (HHL hydrolysis, flash-HPLC read-out)
Assay type: biochemical
From the text: MAP and ITP as novel ACE inhibiting peptides were identified in samples by using 2-dimensional-chromatographic-separation combined with an at-line ACE activity assay and mass spectrometry for identification. In the first analysis the peptide mixture is separated on an ODS3 liquid chromatography (LC) column. An activity profile is created from fractions collected from the analysis using a slightly modified Matsui assay. In the second analysis the fractions from the first column showing a high activity are further separated on a Biosuite LC column using a different gradient profile. The fractions collected from this second column are split into two parts, one part is used for the activity measurement while MS and MS-MS is applied on the other part for identification of the peptides present.
20 μl of a 10% (w/v) solution of PH in Milli-Q water was injected on a 150×2.1 Inertsil 5 ODS3 column with a particle size of 5 μm (Varian, Middelburg, the Netherlands). Mobile phase A consisted of a 0.1% trifluoroacetic acid (TFA) solution in Milli-Q water. Mobile phase B consisted of a 0.1% TFA solution in acetonitrile. The initial eluent composition was 100% A. The eluent was kept at 100% A for 5 minutes. Then a linear gradient was started in 10 minutes to 5% B, followed by a linear gradient in 10 minutes to 30% B. The column was flushed by raising the concentration of B to 70% in 5 minutes, and was kept at 70% B for another 5 minutes. After this the eluent was reduced to 100% A in 1 minute and equilibrated for 9 minutes. The total run time was 50 minutes. The effluent flow was 0.2 ml min^−1 and the column temperature was set at 60° C. A UV chromatogram was recorded at 215 nm. […] After the reaction the plate was cooled in melting ice and analysed on a flash-HPLC-column. […] Hippuric acid (H) and HHL were monitored at 280 nm. The peak heights of H and HHL were measured and the ACEI of each fraction was calculated according to the equation: […]
The degree of hydrolysis (DH) was calculated by expressing the peak height of H as a fraction of the sum of the peak heights of H and HHL.

Row | pIC50 | SMILES
1 | 5.42 | CSCC[C@H](N)C(=O)N[C@@H](C)C(=O)N1CCC[C@H]1C(=O)O [MAP, Met-Ala-Pro]
2 | 4.30 | CC[C@H](C)[C@H](N)C(=O)N[C@H](C(=O)N1CCC[C@H]1C(=O)O)[C@@H](C)O [ITP, Ile-Thr-Pro]
